From ChEMBL document CHEMBL1142791, “Design, synthesis, and evaluation of 2-phenoxy-indan-1-one derivatives as acetylcholinesterase inhibitors” (Bioorg Med Chem Lett, 2005)

Target: T1, Acetylcholinesterase (Rattus norvegicus, UniProt P37136)
T1 sequence (P37136 whole entry): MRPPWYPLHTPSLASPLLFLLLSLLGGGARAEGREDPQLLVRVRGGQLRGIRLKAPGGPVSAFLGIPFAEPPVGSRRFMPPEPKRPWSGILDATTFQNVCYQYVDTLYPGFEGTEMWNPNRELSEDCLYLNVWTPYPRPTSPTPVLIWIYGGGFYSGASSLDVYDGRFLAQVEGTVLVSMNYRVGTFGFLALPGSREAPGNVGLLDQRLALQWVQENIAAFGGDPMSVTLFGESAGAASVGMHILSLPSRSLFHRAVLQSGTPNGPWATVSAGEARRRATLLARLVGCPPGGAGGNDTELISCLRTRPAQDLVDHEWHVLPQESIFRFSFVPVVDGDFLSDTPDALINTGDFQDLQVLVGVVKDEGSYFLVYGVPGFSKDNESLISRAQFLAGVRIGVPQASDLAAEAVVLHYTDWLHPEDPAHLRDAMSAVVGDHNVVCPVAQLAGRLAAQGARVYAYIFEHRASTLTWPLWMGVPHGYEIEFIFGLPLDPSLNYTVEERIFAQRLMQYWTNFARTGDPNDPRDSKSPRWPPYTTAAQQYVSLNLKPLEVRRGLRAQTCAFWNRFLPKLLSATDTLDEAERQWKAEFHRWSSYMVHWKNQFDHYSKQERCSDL

Row | SMILES | IC50 [µM]
1 | COc1cc2c(cc1OC)C(=O)C(Oc1ccc(C(C)N(C)C)cc1)C2 (centres undefined) | 0.15
2 | COc1cc2c(cc1OC)C(=O)C(Oc1cccc(C(C)N3CCOCC3)c1)C2 (centres undefined) | 22.1
3 | COc1cc2c(cc1OC)C(=O)C(Oc1cccc(CN(C)C)c1)C2 (centres undefined) | 1.1
4 | COc1cc2c(cc1OC)C(=O)C(Oc1cccc(CN3CCOCC3)c1)C2 (centres undefined) | 14.6
